Test: RP, Waters CORTECS UPLC C18, 100 × 2.1 mm, 1.6 µm, 40 °C, 0.4 mL/min, estimated dead time 0.55 min; A: water + 0.1% formic acid, pH 3; B: acetonitrile + 0.1% formic acid, pH 3; gradient (min/%B) 0/5 1.12/5 6.41/99.5 10.01/99.5
Conditions: stereoisomer not certain

CCOP(=S)(OCC)Oc1ncn(-c2ccccc2)n1 [Triazophos]
LC retention time: 5.19 min

From the RepoRT retention time repository
